Reference: publication PMC5837957 (European journal of medicinal chemistry, 2018)
“Also recorded” adds a separate entry of the source.

Assays:
[1] = tested on: H3K4me2 at the promoter of the IGFBP2 gene in NCI-H526 cells; assay: ChIP-qPCR of H3K4me2 at IGFBP2 promoter; assay type: cell-based; settings: 100 µM, 48 h
[2] = tested on: H3K4me2 at the promoter of the FEZ1 gene in NCI-H526 cells; assay: ChIP-qPCR of H3K4me2 at FEZ1 promoter; assay type: cell-based; settings: 100 µM, 48 h

CSCC[C@H](NC(=O)[C@@H](NC(=O)[C@H](CCCNC(=N)N)NC(=O)[C@H](C)N)[C@@H](C)O)C(=O)N[C@H]1CCCCNC(=O)CC[C@@H](C(=O)N[C@@H](C)C(=O)NCC(=O)NCC(=O)N[C@@H](CCCCN)C(=O)N[C@@H](C)C(=O)N2CCC[C@H]2C(=O)N[C@@H](CCCNC(=N)N)C(=O)N[C@@H](CCCCN)C(=O)N[C@@H](CCC(N)=O)C(=O)N[C@@H](CC(C)C)C(=O)N[C@@H](C)C(N)=O)NC(=O)[C@H](CCCCN)NC(=O)[C@H](CCCNC(=N)N)NC(=O)[C@H](C)NC(=O)[C@H]([C@@H](C)O)NC1=O [Compound 16]
H3K4me2 levels at the IGFBP2 promoter [1]: smallest change; also recorded: increases H3K4me2 marks | H3K4me2 levels at the FEZ1 promoter [2]: smallest change; also recorded: increases H3K4me2 marks
